For assay [1], the target named is T1, maxadilan (recombinant represented by SEQ ID NO: 2, peptide fragment GSIL- bound to the N-terminal cysteine … (Lutzomyia longipalpis (sand fly), UniProt P30659 24-86)). The assay can be described thus: ^125I-Max saturation binding and Scatchard plot, cattle brain crude membrane fraction.
In assay [2] the target is T1, maxadilan (recombinant represented by …). The assay can be described thus: ^125I-Max saturation binding and Scatchard plot, rat brain crude membrane fraction.
Assay [3] shares this target. Put plainly: ^125I-Max saturation binding and Scatchard plot, rabbit brain crude membrane fraction, filtration.
Assay [4] has the same target. The assay can be described thus: ^125I-Max saturation binding and Scatchard plot, mouse brain crude membrane fraction.

B1: maxadilan receptor of cattle (in the crude membrane fraction from bovine brain) (receptor)
chain: MRGGRHWPEPPCRLRSVMASIAQVSLAALLLLPMATAMHSDCIFKKEQAMCLEKIQRVNDLMGLNDSSPGCPGMWDNITCWKPAHVGEMVLVSCPELFRIFNPDQVWETETIGEFGFADSKSLDLSDMRVVSRNCTEDGWSEPFPHYFDACGFEEYESETGDQDYYYLSVKALYTVGYSTSLVTLTTAMVILCRFRKLHCTRNFIHMNLFVSFMLRAISVFIKDWILYAEQDSNHCFVSTVECKAVMVFFHYCVVSNYFWLFIEGLYLFTLLVETFFPERRYFYWYIIIGWGTPTVCVSVWAMLRLYFDDTGCWDMNDNTALWWVIKGPVVGSIMVNFVLFIGIIVILVQKLQSPDMGGNESSIYFSCVQKCYCKPQRAQQHSCKMSELSTITLRLARSTLLLIPLFGIHYTVFAFSPENVSKRERLVFELGLGSFQGFVVAVLYCFLNGEVQAEIKRKWRSWKVNRYFTMDFKHRHPSLASSGVNGGTQLSILSKSSSQIRMSGLPADNLAT
In general, Kd refers to the concentration at which binding is half-saturated. As for B1, the dissociation constant Kd in assay [1] came to 0.066 nM.

B2: maxadilan receptor of the rat (in the crude membrane fraction from rat brain and on PC-12 cells) (receptor)
chain: MARVLQLSLTALLLPVAIAMHSDCIFKKEQAMCLERIQRANDLMGLNESSPGCPGMWDNITCWKPAQVGEMVLVSCPEVFRIFNPDQVWMTETIGDSGFADSNSLEITDMGVVGRNCTEDGWSEPFPHYFDACGFDDYEPESGDQDYYYLSVKALYTVGYSTSLATLTTAMVILCRFRKLHCTRNFIHMNLFVSFMLRAISVFIKDWILYAEQDSSHCFVSTVECKAVMVFFHYCVVSNYFWLFIEGLYLFTLLVETFFPERRYFYWYTIIGWGTPTVCVTVWAVLRLYFDDAGCWDMNDSTALWWVIKGPVVGSIMVNFVLFIGIIIILVQKLQSPDMGGNESSIYLTNLRLRVPKKTREDPLPVPSDQHSPPFLSCVQKCYCKPQRAQQHSCKMSELSTITLRLARSTLLLIPLFGIHYTVFAFSPENVSKRERLVFELGLGSFQGFVVAVLYCFLNGEVQAEIKRKWRSWKVNRYFTMDFKHRHPSLASSGVNGGTQLSILSKSSSQLRMSSLPADNLAT
Turning to B2, the Kd in assay [2] was determined as 0.161 nM.

B3: maxadilan receptor of the rabbit (maxadilan-specific receptor in crude membrane fractions from rabbit brain and rabbit spleen) (receptor)
chain: MAGVLQVSLAALLLLPAATAMHSDCIFKKEQALCLEKIQRANDLLGLNDSSPGCPGMWDNITCWKPAHVGEMVLVSCPELFRIFNPDQGEFDFAESTSLDLADMGVVSRNCTEDGWSEPFPHYFDACGFDEYESEPGDQDYYYLSVKALYTVGYSTSLVTLTTAMVILCRFRKLHCTRNFIHMNLFVSFMLRAISVFIKDWILYAEQDSNHCFVSTVECKAVMVFFHYCVVSNYFWLFIEGLYLFTLLVETFFPERRYFYWYTMIGWGTPTVCVAVWATLRLYFDDTGCWDMNDSTALWWVIKGPVVASIMVNFVLFIGIIIILVQKLQSPDTGGNESSIYLRLARSTLLLIPLFGIHYTVFAFSPENVSKRERLVFELGLGSFQGFVVAVLYCFLNGEVQAEIKRKWRSWKVNRYFAVDFKHRHPSLASSGVNGGTQLSILSKSSSQLRMSGLPADNLAT
As to B3, the dissociation constant Kd in assay [3] was 0.066 nM.

B4: maxadilan receptor of the mouse (in the crude membrane fraction from mouse brain) (receptor)
chain: MARTLQLSLTALLLLPMAIAMHSDCIFKKEQAMCLERIQRANDLMGLNESSPGCPGMWDNITCWKPAQIGEMVLVSCPEVFRIFNPDQVWMTETIGDSGFADSNSLEITDMGVVGRNCTEDGWSEPFPHYFDACGFDDYEPESGDQDYYYLSVKALYTVGYSTSLVTLTTAMVILCRFRKLHCTRNFIHMNLFVSFMLRAISVFIKDWILYAEQDSSHCFVSTVECKAVMVFFHYCVVSNYFWLFIEGLYLFTLLVETFFPERRYFYWYTIIGWGTPTVCVTVWAVLRLYFDDAGCWDMNDSTALWWVIKGPVVGSIMVNFVLFIGIIIILVQKLQSPDMGGNESSIYFSCVQKCYCKPQRAQQHSCKMSELSTITLRLARSTLLLIPLFGIHYTVFAFSPENVSKRERLVFELGLGSFQGFVVAVLYCFLNGEVQAEIKRKWRSWKVNRYFTMDFKHRHPSLASSGVNGGTQLSILSKSSSQLRMSSLPADNLAT
For the molecule B4, the dissociation constant Kd in assay [4] stood at 0.068 nM.
